Experiments:
CMKLR1 [1] = target: T1, CMKLR1 (Homo sapiens, UniProt Q99788); assay: Ca2+ mobilization assay (G protein-mediated signaling)
T1 sequence (Q99788 1-373): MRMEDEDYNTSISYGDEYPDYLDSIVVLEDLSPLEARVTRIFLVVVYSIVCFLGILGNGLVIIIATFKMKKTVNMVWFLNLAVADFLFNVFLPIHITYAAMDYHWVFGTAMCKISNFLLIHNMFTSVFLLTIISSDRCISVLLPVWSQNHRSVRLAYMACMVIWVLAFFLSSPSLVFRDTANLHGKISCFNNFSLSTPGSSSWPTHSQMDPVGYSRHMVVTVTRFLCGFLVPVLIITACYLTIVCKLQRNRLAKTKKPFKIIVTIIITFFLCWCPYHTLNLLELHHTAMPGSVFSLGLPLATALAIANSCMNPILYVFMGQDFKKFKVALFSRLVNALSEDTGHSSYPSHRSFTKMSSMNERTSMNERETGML

CMKLR1 [2] = target: T1, CMKLR1; assay: BRET-based arrestin 3 recruitment assay; details: CMKLR1-eYFP and Rluc8-arrestin 3, 15 min after agonist addition

EC50 (CMKLR1 [1]): 17.1 nM
EC50 (CMKLR1 [2]; EC50, HEK293 cells): 101 nM
EC50 (CMKLR1 [2]; pEC50 ± SEM, HEK293 cells): 158 nM
SMILES: C[C@@H]1NC(=O)[C@H](Cc2ccccc2)NC(=O)[C@H](CCC(N)=O)NC(=O)[C@H](NC(=O)[C@@H]2CCCN2C(=O)[C@H](Cc2ccccc2)NC(=O)[C@H](Cc2ccc(O)cc2)NC(=O)CCOCCOCCOCCOCCN)CCSSC[C@@H](C(=O)O)NC(=O)[C@H](Cc2ccccc2)NC1=O [$$ 16, EG4-[x4,C9]-chemerin-9]
